# Data: publication PMC5908295 (Oncotarget, 2018)
# Tests used:
# [1] = system: MV-4-11 (FLT3-ITD+) cells; assay: Western blot of FLT3/PIM downstream signaling; type: cell-based; settings: MV-4-11, 4 hours
# Description: (§1) Thereafter, we assessed the activities of FLT3-ITD – induced key pro-survival signaling pathways; STAT5, RAF/MEK/ERK and PI3K/AKT (Figure 3). […] Since the expression of a major anti-apoptotic BCL2 family member, MCL1, is regulated by translation, and PIM kinases regulate protein synthesis through 4EBP1, we also assessed the abundance of MCL1.
# (§2) Cells were collected, washed twice with cold PBS, and lysed in RIPA buffer and kept on ice for 10 min. Tumor specimens from xenograft studies were homogenized in RIPA buffer using OMNI TH Tissue Homogenizer and kept on ice for 30 min. After incubation, cell and tumor lysates were centrifuged at 13,000×g at 4°C for 10 min and the supernatants were stored at −80°C until use. Protein concentration was measured using the Bradford method. For SDS-PAGE, 50 μg of protein in the Laemmli sample buffer was loaded onto 10% polyacrylamide gels and electrophoresed. Thereafter, proteins were transferred onto polyvinylidene fluoride (PVDF) membranes (Millipore). After blocking with 5% non-fat dry milk/TBS-T or 2% BSA/TBS-T, membranes were incubated with specific primary antibodies (listed in Supplementary Table 2) at 4 °C overnight. After extensive washing in PBS-T, membranes were incubated for 60 min with appropriate secondary peroxidase-conjugated IgG. The immunoreactive proteins were detected using an enhanced chemiluminescence (ECL) substrate (GE Healthcare) and visualized with Hyperfilm-ECL (GE Healthcare Biosciences).
# MOLM-16 (FLT3-WT) cells = assay: Western blot of FLT3/PIM downstream signaling; type: cell-based; settings: MOLM-16, 4 hours
# Description: as §1, §2
# [2] = Blood biochemistry in mice with MV-4-11 tumors; type: in vivo; settings: treatment day 15
# Text: All animals were handled in strict accordance with good animal practice as defined by the relevant national and local animal welfare bodies. SCID and SCID/beige C.B-17 mice were provided by Harlan Laboratories or Charles River Laboratories, and were maintained in pathogen free conditions. For the xenograft experiments, age-matched (9-11 weeks old) females were used. 5×10^6 of MV-4-11 or MOLM-16 cells were suspended in a mixture (1:1, v:v) of PBS with Matrigel (BD Biosciences,) and injected subcutaneously (sc), in a total volume of 100 μL, above the groin on the right hind limb. For MOLM-13 and KG-1 cells, a mixture (3:1, v:v) of PBS and Matrigel HC (BD Bioscience,) was used to inject 5 × 10^6 of cell per mouse subcutaneously (sc), in a total volume of 100 μL. When tumors reached 100-130 mm^3, mice were randomized into uniform groups (6-9 mice per group) and subsequently administered the compound. […] At the end of the experiment, mice were anesthetized with isofluran and blood samples for total cell counts and biochemistry were obtained by retro-orbital bleeding. […] 5×10^6 cells suspended in a mixture (3:1, v:v) of PBS and Matrigel were injected as described above. When the tumor volume reached ~120 mm^3, mice were randomized into uniform groups (5 mice per group) and the compound then administered. […] Tumor volume was monitored every second day and calculated using the formula: TV = (a^2×b)/2, where “a” is the short axis in millimeters, and “b” is the long axis in millimeters. Body weight was assessed every day.
# Supplementary Table 9: Related to Figure 5C. […] The assessment of
# was performed on treatment day 15.
# AST – Aspartate aminotransferase, ALT – Alanine transaminase, ALP – alkaline phosphatase, UREA – blood urea nitrogen,
# CREA – Creatinine, CK – Creatine kinase, TP- total protein; ALB – Albumin. […]
smiles,measurement,setting,value
CC(C)(C)c1cc(NC(=O)Nc2ccc(-c3cn4c(n3)sc3cc(OCCN5CCOCC5)ccc34)cc2)no1 [AC220],MCL1 abundance,[1],to a lesser extent
same,STAT5 signaling,[1],completely blocked
same,S6 (S235/236) phosphorylation,MOLM-16 (FLT3-WT) cells,did not alter
Nc1ccn([C@@H]2O[C@H](CO)[C@@H](O)[C@@H]2O)c(=O)n1 [Cytarabine],Na,[2]; Cytarabine 50 mg/kg,138.4 nmol/L
"CC(C)n1c(C2CCNCC2)nc2c([N+](=O)[O-])c(Br)c(Br)cc21 [SEL24-B489, 5,6-dibromo-4-nitro-2-(piperidin-4-yl)-1-(propan-2-yl)-1H-1,3-benzodiazole]",ALT,[2]; SEL24-B489 25 mg/kg,70.5 U/L
same,Na,[2]; SEL24-B489 25 mg/kg,138.2 nmol/L
